Activation data for 2 molecules are collected here from PubChem BioAssay AID567 (The Scripps Research Institute Molecular Screening Center, 2006).

Protein sequences, listed by entry. Tags and fused reporters are not part of them.
UniProt P08908, whole entry: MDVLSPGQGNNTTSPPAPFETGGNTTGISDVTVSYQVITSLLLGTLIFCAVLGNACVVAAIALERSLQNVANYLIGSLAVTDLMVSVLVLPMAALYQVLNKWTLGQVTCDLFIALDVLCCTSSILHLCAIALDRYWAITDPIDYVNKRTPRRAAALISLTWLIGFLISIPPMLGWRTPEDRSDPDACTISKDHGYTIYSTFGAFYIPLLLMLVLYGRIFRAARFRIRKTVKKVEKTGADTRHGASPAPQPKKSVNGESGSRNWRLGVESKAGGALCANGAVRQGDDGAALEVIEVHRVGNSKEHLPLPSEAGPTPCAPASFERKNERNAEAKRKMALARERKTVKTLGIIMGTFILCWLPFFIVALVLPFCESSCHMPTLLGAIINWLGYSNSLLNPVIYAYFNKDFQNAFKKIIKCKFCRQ

The structures appear in SMILES notation. This is a selection; strong and weak results do not stand in their true shares. Some results for these compounds are left out of this collection, so the calls shown say nothing about other tests. Calls of active or inactive are those of the source.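 The calls were made as follows: active = activation above the screen-wide mean activation plus 3 SD (cut at about 19% in these data); inactive = the rest.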

This test deals with 5-hydroxytryptamine receptor 1A (Homo sapiens) (UniProt P08908). The test can be described thus: human 5-HT1a receptor agonists, primary screen, cell-based, CHO, Ga15 NFAT-bla reporter (AID 567).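 Also: 0% = DMSO wells and 100% = 5-CT at EC100.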 As to conditions: CHO 5-HT1a Ga15 NFAT-bla reporter, FRET ratio; at 10 µM; stronger effect = higher value; 0% basal, 100% maximal reference agonist.
In the case of `O=C(OC1CN2CCC1CC2)C(CO)(c1ccccc1)c1ccccc1` (configuration not stated), the activation is inactive: -0.93%.
For `CN(C)c1cccc(C(=O)NCC2(N(C)C)CCCCC2)c1` the value was inactive: -0.9%.
